From patent publication US10071095B2, “1,2,4-triazolo [4,3-A] pyridine derivatives and their use for the treatment of neurological and psychiatric disorders” (JANSSEN PHARMACEUTICALS, INC., priority 2009, dated 2018)

Sequences of proteins named here, by UniProt entry; tags and fusion partners are left off. Residues count along the entry.
UniProt Q14416, 19-872 limits assumed: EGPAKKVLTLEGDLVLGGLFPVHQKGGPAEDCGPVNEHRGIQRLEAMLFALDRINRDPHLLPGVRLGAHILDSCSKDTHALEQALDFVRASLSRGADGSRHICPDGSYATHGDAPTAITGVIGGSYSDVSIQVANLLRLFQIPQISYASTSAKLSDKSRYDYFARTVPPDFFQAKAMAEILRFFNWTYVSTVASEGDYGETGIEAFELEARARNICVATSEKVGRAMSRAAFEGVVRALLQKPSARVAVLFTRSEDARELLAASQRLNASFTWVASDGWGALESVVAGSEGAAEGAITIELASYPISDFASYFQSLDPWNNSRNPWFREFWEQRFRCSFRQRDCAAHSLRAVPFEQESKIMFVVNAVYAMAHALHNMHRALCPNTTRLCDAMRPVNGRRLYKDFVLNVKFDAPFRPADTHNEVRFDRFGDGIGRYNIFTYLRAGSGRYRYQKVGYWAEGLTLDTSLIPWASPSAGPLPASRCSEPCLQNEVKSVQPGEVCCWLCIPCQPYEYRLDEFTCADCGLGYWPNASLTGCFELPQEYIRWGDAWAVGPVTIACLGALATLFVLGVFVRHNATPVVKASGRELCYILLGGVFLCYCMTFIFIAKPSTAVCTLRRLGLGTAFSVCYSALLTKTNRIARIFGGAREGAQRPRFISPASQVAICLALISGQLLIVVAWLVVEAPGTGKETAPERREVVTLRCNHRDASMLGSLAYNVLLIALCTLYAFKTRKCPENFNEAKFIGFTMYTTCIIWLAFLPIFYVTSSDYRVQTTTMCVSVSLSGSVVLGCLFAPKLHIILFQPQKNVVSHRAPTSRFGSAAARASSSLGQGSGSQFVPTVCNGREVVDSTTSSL

Biological target: human mGluR2 receptor (Homo sapiens, UniProt Q14416)
Assay: [35S]GTPγS binding assay, positive allosteric modulation (GTPγS-PAM) in presence of EC20 glutamate
Format: biochemical
Settings: in presence of glutamate at EC20, average pEC50 if more experiments, ‡ means tested once

Row | Structure (SMILES) | GTPγS - hR2 PAM pEC50 | GTPγS - hR2 PAM pEC50 (tested form: hydrochloride)
1 | CCOCc1nnc2c(C(F)(F)F)c(CN3C[C@@H]4[C@H](C3)[C@H]4c3ccccc3)ccn12 (relative stereo) | 7.11 ‡ | –
2 | CC1(c2cccc(F)c2)CCN(Cc2ccn3c(CC4CC4)nnc3c2C(F)(F)F)CC1 | 7.48 ‡ | –
3 | FC(F)(F)c1c(CN2CCN(c3ccc(Cl)cn3)CC2)ccn2c(CC3CC3)nnc12 | 7.25 ‡ | –
4 | Fc1ccc(F)c(N2CCN(Cc3ccn4c(CC5CC5)nnc4c3C(F)(F)F)CC2)c1 | 7.35 ‡ | –
5 | CCOCc1nnc2c(C(F)(F)F)c(CN3CCN(c4ccc(F)cc4F)CC3)ccn12 | – | 6.57 ‡
6 | Fc1ccc(OC2CCN(Cc3ccn4c(CC5CC5)nnc4c3Cl)CC2)c(F)c1 | 6.44 ‡ | –
7 | CC1(c2ccccc2F)CCN(Cc2ccn3c(CC4CC4)nnc3c2Cl)CC1 | 6.84 ‡ | –
8 | FC(F)(F)C1CCN(Cc2ccn3c(CC4CC4)nnc3c2Cl)CC1 | 5.75 ‡ | –
9 | FC(F)(F)c1c(CN2CCC(n3ccc4ccccc43)CC2)ccn2c(CC3CC3)nnc12 | 7.27 ‡ | –
10 | FC(F)(F)c1c(CN2CCC(c3ccccn3)CC2)ccn2c(CC3CC3)nnc12 | 6.78 ‡ | –
11 | CCOc1c(F)cccc1N1CCN(Cc2ccn3c(CC4CC4)nnc3c2Cl)CC1 | 7.33 | –
12 | CC1(C)CN(Cc2ccn3c(CC4CC4)nnc3c2C(F)(F)F)CCN1c1cc(F)cc(F)c1 | 8.25 ‡ | –
13 | CC1CN(c2ccn3c(CC4CC4)nnc3c2C(F)(F)F)CCC1c1ccccc1 (single isomer, unassigned) | 7.52 ‡ | –
14 | CCc1nnc2c(C(F)(F)F)c(CN3CCC(c4ccc(F)cc4F)CC3)ccn12 | 6.96 | –
15 | Clc1c(CN2CCN(c3ccccn3)CC2)ccn2c(CC3CC3)nnc12 | 6.31 ‡ | –
16 | Fc1ccc(C2CCN(Cc3ccn4c(CCC5CC5)nnc4c3C(F)(F)F)CC2)c(F)c1 | 6.77 ‡ | –
17 | CCCc1nnc2c(C(F)(F)F)c(CN3CCC(c4ccc(F)cc4F)CC3)ccn12 | 7.27 | –
18 | FC(F)(F)C1(c2ccccc2)CCN(Cc2ccn3c(CC4CC4)nnc3c2Cl)CC1 | 6.8 ‡ | –

Row | Structure (SMILES) | GTPγS - hR2 PAM pEC50 | GTPγS - hR2 PAM pEC50 (tested form: hydrochloride)
19 | Fc1ccc(N2CCN(Cc3ccn4c(CC5CC5)nnc4c3C(F)(F)F)CC2)cc1F | 7.24 ‡ | –
20 | COCCOCc1nnc2c(Cl)c(N3CCC(c4ccccc4)CC3)ccn12 | 6.07 | –
21 | Clc1c(N2CCN(C[C@H]3C[C@@H]3c3ccccc3)CC2)ccn2c(CC3CC3)nnc12 (relative stereo) | 5.88 | –
22 | COc1ccccc1C1CCN(Cc2ccn3c(CC4CC4)nnc3c2C(F)(F)F)CC1 | 7.41 | –
23 | Fc1ccc(C2CCN(Cc3ccn4c(CC5CCC5)nnc4c3C(F)(F)F)CC2)c(F)c1 | 7.23 ‡ | –
24 | Clc1c(CN2CCC3(C=Cc4ccccc43)CC2)ccn2c(CC3CC3)nnc12 | 7.24 ‡ | –
25 | Cc1cc(C)nc(N2CCN(Cc3ccn4c(CC5CC5)nnc4c3C(F)(F)F)CC2)n1 | 6.41 | –
26 | CC1(c2cccc(F)c2)CCN(Cc2ccn3c(CC(F)(F)F)nnc3c2Cl)CC1 | 6.82 | –
27 | CC(C)Cc1nnc2c(C(F)(F)F)c(CN3C[C@@H]4[C@H](C3)[C@H]4c3ccccc3)ccn12 (relative stereo) | 7.39 ‡ | –
28 | C[C@H]1CN(c2ccn3c(CC4CC4)nnc3c2C(F)(F)F)CCN1c1ccccc1 | 7.34 | –
29 | COc1ccccc1C1CCN(Cc2ccn3c(CC4CC4)nnc3c2Cl)CC1 | 6.59 | –
30 | COC1(c2ccccc2)CCN(Cc2ccn3c(CC4CC4)nnc3c2Cl)CC1 | 6.77 | –
31 | CC(C)Cc1nnc2c(C(F)(F)F)c(CN3CCC(F)(c4ccccc4)CC3)ccn12 | 6.64 ‡ | –
32 | Fc1ccc(COC2CCN(Cc3ccn4c(CC5CC5)nnc4c3Cl)CC2)c(F)c1 | 6.5 | –
33 | CCOc1c(F)cccc1C1CCN(Cc2ccn3c(CC4CC4)nnc3c2C(F)(F)F)CC1 | 7.71 | –
34 | CC(C)(C)Cc1nnc2c(C(F)(F)F)c(CN3CCC(c4ccc(F)cc4F)CC3)ccn12 | 6.98 ‡ | –
35 | Fc1ccc(N2CC3(CCCN(Cc4ccn5c(CC6CC6)nnc5c4C(F)(F)F)C3)C2)cc1 | 7.91 | –
36 | CCc1nnc2c(C(F)(F)F)c(CN3CCC(F)(c4ccccc4)CC3)ccn12 | 6.08 ‡ | –
